For assay [1], the system named is B. napus wild type line SR002201 (NCIMB 41813). As to the kind of experiment: ALS-inhibitor herbicide injury on B. napus, greenhouse spray trial, visual scoring. The class given is in vivo. The note with it: Brassica napus, 336 h, read-out: Herbicide injury on B. napus SR002201, 15 g a.i./ha, spray at BBCH 12-13 with Mero 1 l/ha, visual scoring 14 days after application, 0%=no damage, 100%=all plants dead.

For assay [2], the system named is non-mutagenized FM101 tissue. To be noted: 10^−4 M in selective medium.

Where only a bound is given, the exact number is not on record here.

The results in this text go back to patent US9572315B2, “ALS inhibitor herbicide tolerant B. napus mutants” (BAYER INTELLECTUAL PROPERTY GMBH, priority 2011, dated 2017).

As to `COc1cc(OC)nc(NC(=O)[N-]S(=O)(=O)c2ncccc2C2=NOCCO2)n1.[Na+]` [Compound of formula (I)], in assay [1], the pest or weed control at 15 g/ha is more than 90%. In assay [2], the “growth of non-mutagenized FM101 tissue on selective medium” value is reported as “prevented the growth”.
